Experiments:
[1] = Solid-state stability study, accelerated conditions (40° C. and 75% relative humidity, 14 days); type: physicochemical; details: 40° C./75% RH, 2 weeks, sealed container; for Appearance: 50 mg solid; for XRPD analysis: form change by XRPD
Procedure: A study was carried out to examine the physical stability of the tetrahydrocannabinolic acid cocrystals with respect to solid form conversion or signs of decomposition over time under both ambient and accelerated conditions.

[2] = Solid-state stability study, ambient conditions in clear glass vial for 6 months; type: physicochemical; details: for Appearance: 50 mg solid; for XRPD analysis: form change by XRPD

1:1 tetrahydrocannabinolic acid caffeine cocrystal [1:1 THCA CAFFEINE]
Appearance [1]: No change | XRPD analysis [1]: No change | XRPD analysis ([1]; listed as 1:1 tetrahydrocannabinolic acid caffeine cocrystal): retained their original crystalline form | Appearance [2]: No change | XRPD analysis [2]: No change

1:1 tetrahydrocannabinolic acid L-proline cocrystal [1:1 THCA L-PROLINE]
Appearance [1]: No change | XRPD analysis [1]: No change | XRPD analysis ([1]; listed as 1:1 tetrahydrocannabinolic acid L-proline cocrystal): retained their original crystalline form | Appearance [2]: No change | XRPD analysis [2]: No change

— US12702675B2, “Tetrahydrococannabinolic acid cocrystals” (Manoira Corporation, priority 2020, dated 2026)
